From US20030119067A1, “PYK2 related products and methods” (Sugen, Inc., priority 1996, published 2003)

Target: PYK2 (human, wild type, full length, transiently overexpressed in 293/293T cells) (human)
Assay: cell-based or functional assay

endogenous Src activity (pY416Src phosphorylation) in 293T cells: 4 fold
Substance: endogenous Src of human embryonic kidney 293T cells (from UniProt P12931 2-536) (enzyme)
